Measured properties of organic chemicals

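OPERA's authors assembled the values from existing databases and did not measure them anew. A listed value is a point estimate from one report or more. Method, purity and exact conditions of the single measurements are not given. The measured form (salt, isomer or mixture) is not always the one drawn. Some entries may be limits or estimates that an upstream database listed as plain numbers.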

Melting points are in °C. The boiling point refers to atmospheric pressure (760 mmHg), by the definition of the set. The octanol-water partition coefficient is given as log10; larger values mean a more lipophilic compound. Solubility in water is on a log10 molar scale (set defined at 25 °C). Vapor pressures (log10 mmHg) refer to near room temperature, 15 to 30 °C; higher is more volatile. Henry's law constant (air-water partitioning) is log10 of atm·m3/mol, nominally at 25 °C. fu is the fraction unbound in human plasma, from 0 to 1. Clint is human hepatic intrinsic clearance in µL/min per million cells; 0 means that no clearance was seen. Cells with "–" have no entry in this list.

SMILES	MP (°C)	boiling point (°C)	logP	log solubility (log10 mol/L)	log vapor pressure (log10 mmHg)	log H (log10 atm·m3/mol)	fu	hepatic Clint (µL/min/10^6 cells)
C=CC(=O)OC(C)(C)C	–	–	2.31	–	1.176	–	–	–
CC(C)CC(=O)C1C(=O)c2ccccc2C1=O	–	–	–	-3.36	-5.162	–	–	–
CN[C@@H](C)Cc1ccccc1	–	212	–	-2.206	–	–	0.85	–
c1ccc2c(c1)Sc1ccccc1N2CC1CN2CCC1CC2 (stereo not given)	–	–	4.7	-4.905	–	–	0.1	–
CCOP(=S)(OCC)Oc1ccc(Cl)cc1Cl	–	–	–	-6.11	-3.252	–	–	–
CC(=O)CC(c1ccco1)c1c(O)c2ccccc2oc1=O (stereo not given)	–	–	–	-2.74	-10.66	–	–	–
COP(=S)(OC)Oc1ccc([N+](=O)[O-])cc1	–	142.8	–	–	–	–	–	14.19
C=CCCl	–	–	2.1	-1.36	–	–	–	–
O=C(NC(=O)c1c(F)cccc1F)Nc1ccc(Oc2ccc(C(F)(F)F)cc2Cl)cc1F	168.8	–	6.16	–	–	-10.58	–	–
CCC1C(=O)NC(=O)NC1=O	191	–	–	-1.427	–	–	–	–
C1CC(COCC2CO2)CCC1COCC1CO1 (stereo not given)	–	–	2.29	-1.836	-4.74	–	–	–
CCC1(c2ccc(N)cc2)CCC(=O)NC1=O (stereo not given)	–	–	1.3	-2.797	–	–	0.6287	–
COP(=S)(OC)Oc1ccc(Sc2ccc(OP(=S)(OC)OC)cc2)cc1	–	–	–	–	-7.155	-8.707	–	–
CC(C)(C)C(=O)C(Oc1ccc(Cl)cc1)n1cncn1 (stereo not given)	–	–	–	–	–	-9.051	0.1038	14.59
Fc1ccc(C2(Cn3cncn3)OC2c2ccccc2Cl)cc1 (stereo not given)	–	–	–	–	–	–	0.0575	0
COc1ccc(OC)c(C(O)C(C)N)c1 (stereo not given)	–	–	0.8	–	–	–	0.85	–
CC1CC(CC2CCC(N)C(C)C2)CCC1N (stereo not given)	–	342	2.5	-1.821	-3.222	–	–	–
C1=Cc2cccc3cccc1c23	–	–	–	–	–	–	0.01116	12.38
CCC1(CC(C)C)C(=O)NC(=O)NC1=O	–	–	1.69	-5.142	–	–	–	–
Nc1ccc(Oc2ccc(N)cc2)cc1	–	–	–	-3.62	–	–	0.3284	–
O=c1[nH]c2cc(Cl)ccc2n1C1CCNCC1	–	–	-0.15	-2.661	-9.837	–	–	–
C[C@]12CC[C@H]3[C@@H](CCC4=CC(=O)C=C[C@@]43C)[C@@H]1CC[C@@H]2O	–	–	2.3	-3.7	-10.11	–	–	–
COC(=O)Cc1ccccc1	-14.54	–	–	-2.166	-0.896	–	–	–

3 of these entries, quoted again:

{"smiles": "CC(=O)CC(c1ccco1)c1c(O)c2ccccc2oc1=O", "stereo": "stereo not given", "log solubility (log10 mol/L)": "-2.74", "log vapor pressure (log10 mmHg)": "-10.66"}
{"smiles": "COC(=O)Cc1ccccc1", "MP (°C)": "-14.54", "log solubility (log10 mol/L)": "-2.166", "log vapor pressure (log10 mmHg)": "-0.896"}
{"smiles": "CCOP(=S)(OCC)Oc1ccc(Cl)cc1Cl", "log solubility (log10 mol/L)": "-6.11", "log vapor pressure (log10 mmHg)": "-3.252"}

From the experimental data distributed with OPERA 2.9.